{
  "sequences": {"note": "Sequences of proteins named here, by UniProt entry; tags and fusion partners are left off. A change or cut given only in a name is not applied to a line headed by its entry.", "UniProt P29375": "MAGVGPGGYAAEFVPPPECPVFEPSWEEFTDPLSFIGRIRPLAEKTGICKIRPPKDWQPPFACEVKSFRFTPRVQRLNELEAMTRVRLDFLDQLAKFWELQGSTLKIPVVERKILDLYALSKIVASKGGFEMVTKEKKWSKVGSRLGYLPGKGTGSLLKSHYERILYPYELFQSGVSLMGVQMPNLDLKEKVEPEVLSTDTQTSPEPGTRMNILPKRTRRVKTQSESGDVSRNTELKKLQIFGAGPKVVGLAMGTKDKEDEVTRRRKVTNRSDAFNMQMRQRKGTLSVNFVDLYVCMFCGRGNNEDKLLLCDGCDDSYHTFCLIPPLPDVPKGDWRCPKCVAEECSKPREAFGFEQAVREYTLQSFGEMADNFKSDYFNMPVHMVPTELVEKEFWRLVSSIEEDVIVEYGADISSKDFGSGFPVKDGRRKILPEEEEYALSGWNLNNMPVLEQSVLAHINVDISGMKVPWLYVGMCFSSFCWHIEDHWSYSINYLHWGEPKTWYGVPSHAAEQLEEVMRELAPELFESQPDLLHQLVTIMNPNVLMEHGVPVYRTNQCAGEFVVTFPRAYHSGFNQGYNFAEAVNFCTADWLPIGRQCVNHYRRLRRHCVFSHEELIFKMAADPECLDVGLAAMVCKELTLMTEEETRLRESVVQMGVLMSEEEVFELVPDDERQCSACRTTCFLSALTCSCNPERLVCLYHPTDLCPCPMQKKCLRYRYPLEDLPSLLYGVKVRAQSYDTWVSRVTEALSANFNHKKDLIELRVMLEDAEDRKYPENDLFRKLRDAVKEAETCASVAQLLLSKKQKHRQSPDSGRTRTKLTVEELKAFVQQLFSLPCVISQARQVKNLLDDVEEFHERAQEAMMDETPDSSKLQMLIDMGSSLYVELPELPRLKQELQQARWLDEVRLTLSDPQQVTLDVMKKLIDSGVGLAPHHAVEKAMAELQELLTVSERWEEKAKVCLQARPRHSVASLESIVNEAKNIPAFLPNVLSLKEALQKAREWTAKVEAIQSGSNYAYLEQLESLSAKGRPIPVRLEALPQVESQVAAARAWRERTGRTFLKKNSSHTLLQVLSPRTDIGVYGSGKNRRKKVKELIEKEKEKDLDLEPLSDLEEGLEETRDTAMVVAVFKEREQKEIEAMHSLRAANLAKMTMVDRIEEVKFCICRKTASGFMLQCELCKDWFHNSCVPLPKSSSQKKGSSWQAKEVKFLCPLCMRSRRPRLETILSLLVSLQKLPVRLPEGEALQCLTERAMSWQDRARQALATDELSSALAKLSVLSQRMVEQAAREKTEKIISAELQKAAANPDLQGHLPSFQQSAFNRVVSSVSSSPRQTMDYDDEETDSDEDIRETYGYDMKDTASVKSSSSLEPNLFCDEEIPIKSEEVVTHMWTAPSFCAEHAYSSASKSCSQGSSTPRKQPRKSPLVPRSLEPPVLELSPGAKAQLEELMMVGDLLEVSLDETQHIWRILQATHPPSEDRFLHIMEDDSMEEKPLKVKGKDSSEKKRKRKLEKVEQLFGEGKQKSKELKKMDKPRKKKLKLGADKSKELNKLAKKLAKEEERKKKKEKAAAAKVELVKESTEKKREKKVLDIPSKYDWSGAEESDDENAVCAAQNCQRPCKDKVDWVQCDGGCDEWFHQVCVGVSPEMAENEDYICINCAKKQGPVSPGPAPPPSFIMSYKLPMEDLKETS"},
  "source": "ChEMBL document CHEMBL2424657",
  "about": "“Identification of the KDM2/7 histone lysine demethylase subfamily inhibitor and its antiproliferative activity” (J Med Chem, 2013)",
  "key": {"[1]": {"target": "Lysine-specific demethylase 5A (Homo sapiens, UniProt P29375)", "test": "Inhibition of KDM5A (unknown origin) using H3K4me3 peptide and 2-oxoglutarate as substrate after 1 hr by FDH-coupled assay", "in_short": "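Run as the FDH-coupled KDM4C format, with compounds in DMSO and activity relative to a DMSO control. KDM4A was used at 0.37 mg/mL final with H3K9me3 peptide. KDM5A was used at 0.64 mg/mL final with H3K4me3 peptide. Values are means of two experiments.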"}, "[2]": {"target": "T1, Lysine-specific demethylase 4C (Homo sapiens, UniProt Q9H3R0)", "T1 sequence (Q9H3R0 whole entry)": "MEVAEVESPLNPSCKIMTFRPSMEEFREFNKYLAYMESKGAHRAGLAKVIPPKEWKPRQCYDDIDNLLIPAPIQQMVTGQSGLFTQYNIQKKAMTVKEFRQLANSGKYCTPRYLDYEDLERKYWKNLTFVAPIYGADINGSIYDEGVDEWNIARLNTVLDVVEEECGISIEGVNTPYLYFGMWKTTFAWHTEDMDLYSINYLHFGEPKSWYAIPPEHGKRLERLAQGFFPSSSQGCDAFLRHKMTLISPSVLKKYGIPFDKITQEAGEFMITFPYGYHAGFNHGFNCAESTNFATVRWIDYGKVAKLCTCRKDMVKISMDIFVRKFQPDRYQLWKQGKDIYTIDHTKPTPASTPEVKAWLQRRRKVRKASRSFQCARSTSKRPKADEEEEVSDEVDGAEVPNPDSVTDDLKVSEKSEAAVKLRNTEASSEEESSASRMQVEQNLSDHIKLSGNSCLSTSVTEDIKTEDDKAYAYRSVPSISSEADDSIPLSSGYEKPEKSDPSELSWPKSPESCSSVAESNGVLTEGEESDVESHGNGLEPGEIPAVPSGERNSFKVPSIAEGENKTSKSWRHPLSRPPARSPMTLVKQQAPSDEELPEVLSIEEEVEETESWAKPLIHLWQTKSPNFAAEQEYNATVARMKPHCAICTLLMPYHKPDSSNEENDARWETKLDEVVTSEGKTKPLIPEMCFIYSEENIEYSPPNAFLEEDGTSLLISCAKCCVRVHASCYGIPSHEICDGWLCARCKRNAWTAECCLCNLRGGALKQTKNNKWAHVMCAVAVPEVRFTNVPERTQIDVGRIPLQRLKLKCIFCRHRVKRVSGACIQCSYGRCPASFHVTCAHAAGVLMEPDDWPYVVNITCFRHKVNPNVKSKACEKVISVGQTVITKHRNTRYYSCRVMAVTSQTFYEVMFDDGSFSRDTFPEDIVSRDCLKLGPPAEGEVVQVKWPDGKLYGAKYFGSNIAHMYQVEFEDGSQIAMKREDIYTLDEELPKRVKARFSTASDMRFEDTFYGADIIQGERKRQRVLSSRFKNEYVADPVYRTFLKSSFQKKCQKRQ", "test": "Inhibition of KDM4C (unknown origin) using H3K9me3 peptide and 2-oxoglutarate as substrate after 1 hr by FDH-coupled assay"}},
  "data": [
    {"molecule": "CN(C)NC(=O)CCC(=O)O", "values": [
      {"measurement": "IC50", "setting": "[1]", "value": 2200, "unit": "µM"},
      {"measurement": "IC50", "setting": "[2]", "value": 2500, "unit": "µM"}
    ]}
  ]
}
